{"source": "ChEMBL document CHEMBL1255506", "about": "“Discovery of quinolines as selective glucocorticoid receptor agonists” (Bioorg Med Chem Lett, 2010)", "target": "T1, Progesterone receptor (Homo sapiens, UniProt P06401)", "T1 sequence (P06401 whole entry)": "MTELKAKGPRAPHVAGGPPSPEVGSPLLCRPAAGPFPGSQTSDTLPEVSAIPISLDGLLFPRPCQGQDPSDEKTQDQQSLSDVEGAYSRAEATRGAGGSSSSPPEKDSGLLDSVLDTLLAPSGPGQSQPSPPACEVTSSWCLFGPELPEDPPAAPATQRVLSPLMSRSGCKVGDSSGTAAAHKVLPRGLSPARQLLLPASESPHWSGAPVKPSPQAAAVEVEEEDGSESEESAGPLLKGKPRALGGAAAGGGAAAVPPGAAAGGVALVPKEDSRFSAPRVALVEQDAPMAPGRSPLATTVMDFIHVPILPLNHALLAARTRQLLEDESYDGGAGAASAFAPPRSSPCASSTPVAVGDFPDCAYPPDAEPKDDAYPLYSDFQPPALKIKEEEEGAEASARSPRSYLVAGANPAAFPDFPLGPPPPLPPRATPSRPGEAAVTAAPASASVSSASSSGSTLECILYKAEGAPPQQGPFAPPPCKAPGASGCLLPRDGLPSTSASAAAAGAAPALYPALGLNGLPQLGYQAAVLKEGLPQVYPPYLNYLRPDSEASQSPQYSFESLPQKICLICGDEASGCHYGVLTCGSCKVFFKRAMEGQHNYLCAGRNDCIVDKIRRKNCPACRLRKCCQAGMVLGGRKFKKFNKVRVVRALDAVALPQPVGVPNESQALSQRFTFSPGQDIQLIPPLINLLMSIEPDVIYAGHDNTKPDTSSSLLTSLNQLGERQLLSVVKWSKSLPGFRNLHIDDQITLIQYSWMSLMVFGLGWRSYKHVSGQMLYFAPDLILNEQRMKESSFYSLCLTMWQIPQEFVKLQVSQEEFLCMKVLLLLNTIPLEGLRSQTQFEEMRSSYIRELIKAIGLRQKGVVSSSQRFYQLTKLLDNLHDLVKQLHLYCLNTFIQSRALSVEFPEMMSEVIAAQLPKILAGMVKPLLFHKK", "assay": "Binding affinity to human recombinant progesterone receptor expressed in baculovirus infected Sf9 cells"}
{"smiles": "Cc1noc(=O)c2ccc(NC(=O)C(O)(CC(C)(C)c3cccc4c3OCC4)C(F)(F)F)cc12", "note": "(stereo unspecified)", "values": [{"measurement": "IC50", "result": 20, "unit": "nM"}]}
